## Binding of CDR-mutated scFvs to a peptide of the spike HR2 region

Target peptide (SARS-CoV-2 spike, HR2 region): PDVDLGDISGINAS

Each scFv is VH, three GGGGS repeats, VL, as in the parent Ab-14, and differs from it in the CDRs of the light chain only.
VH: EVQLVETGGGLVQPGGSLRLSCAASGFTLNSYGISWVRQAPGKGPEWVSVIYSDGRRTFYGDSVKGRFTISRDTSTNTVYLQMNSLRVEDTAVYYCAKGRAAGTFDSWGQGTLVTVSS
VL: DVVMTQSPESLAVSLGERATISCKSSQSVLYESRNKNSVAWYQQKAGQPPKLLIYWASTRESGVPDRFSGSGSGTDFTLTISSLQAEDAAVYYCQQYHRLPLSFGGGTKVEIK

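The parent was found by panning a naive human phage display library on the peptide. The library (AAYL50) carries one to three amino acid substitutions per variant, with no insertions or deletions. AlphaSeq pools MATa yeast showing the antibodies with MATalpha yeast showing the peptide. Mating (16 h, 30 °C) was followed by selection of diploids and sequencing of their barcodes. Read counts were normalised to the haploid input and turned into Kd by a linear fit to BCL2-family pairs of known affinity, for each replicate. Mating was done three times.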

Substitutions are numbered in sequence along the VL above, starting at 1 (not Kabat).
Values are log10 of the apparent Kd in nM; lower means stronger binding.
Replicates are averaged; those with no signal do not enter the mean.
"nd" marks a missing value. The strain was present, yet no cells mated with the target were sequenced in that replicate, which points to weak or no binding.
For reference, the parent read 0.65 as the reference entry and 1.68 as a member of this library.
Three control strains display no target. For library AAYL50, 18% of the pairings with them gave a signal, with a median of 4.19 and one signal in twenty below 2.99, so weak values seen in few replicates may be background. Also given: how often the same scFv was detected with the empty control strains, with their mean in brackets.

changes,"replicates, log10 nM",mean log10 Kd (nM),empty controls
N35I Q95P P101K,1.43 / 1.41 / 1.31,1.39,3 of 9 (3.92)
L100Q P101S,0.41 / 0.70 / 0.60,0.57,1 of 9 (4.24)
V29G R99I L100M,2.04 / 2.00 / 2.44,2.16,4 of 9 (4.62)
K24G R34Q A57D,3.02 / 2.81 / 3.15,2.99,3 of 9 (3.98)
Y31Q E61W L100W,4.56 / nd / 6.29,5.42,4 of 9 (4.74)
L30I R60F S62V,nd / 4.08 / nd,4.08,1 of 9 (3.86)
R34V R60S S103T,2.00 / 2.78 / 2.40,2.39,0 of 9
N35R S58K H98E,3.29 / nd / 3.91,3.60,2 of 9 (3.69)
S26L V29E A40D,nd / nd / nd,nd,0 of 9
S25T K36W S38P,nd / nd / nd,nd,0 of 9
L30E R34F S103H,1.02 / 1.09 / 1.14,1.08,3 of 9 (5.62)
A40F Q95S L102I,nd / nd / nd,nd,0 of 9
A40T Q96S R99G,nd / nd / nd,nd,1 of 9 (2.85)
V29L Y31T S33T,0.06 / 0.60 / 0.68,0.45,0 of 9
L30T N37Q S38V,nd / nd / nd,nd,3 of 9 (3.66)
K36F A40W Y97K,nd / nd / nd,nd,0 of 9
S26F Q27R P101S,3.44 / nd / nd,3.44,2 of 9 (4.18)
S26R S38T V39E,nd / 4.31 / 6.10,5.20,4 of 9 (4.74)
S28M P101I S103Y,3.67 / 3.08 / 3.10,3.28,1 of 9 (2.87)
S38M Q95D P101G,nd / nd / nd,nd,0 of 9
E32F V39A E61N,nd / nd / nd,nd,0 of 9
R34F N35R L100Q,1.55 / 2.37 / 3.16,2.36,0 of 9
Q27L T59F E61M,2.31 / 2.18 / 2.14,2.21,2 of 9 (4.31)
S38T A40Y T59L,nd / nd / 3.82,3.82,1 of 9 (2.97)
S28V E61Q S62Y,3.47 / 3.35 / 2.61,3.14,4 of 9 (4.78)
S26N S38C R99C,nd / 4.02 / nd,4.02,0 of 9
V29N S38E P101W,nd / nd / nd,nd,0 of 9
W56Q Q96H P101V,1.02 / 1.33 / 1.14,1.16,3 of 9 (3.63)
W56R T59M,1.46 / 1.36 / 1.37,1.40,1 of 9 (3.83)
S25P A40I H98V,3.31 / nd / nd,3.31,0 of 9
E32I S38Q R99N,nd / nd / nd,nd,0 of 9
Q27R K36S S62F,2.52 / 0.73 / 3.03,2.09,0 of 9
Q27C E32P S33M,2.24 / 2.03 / 2.66,2.31,2 of 9 (3.84)
N35C S38H H98N,3.29 / nd / 1.93,2.61,0 of 9
K24W S62I Q96F,nd / nd / nd,nd,1 of 9 (3.63)
S33M N37C A57P,nd / nd / nd,nd,0 of 9
Q27V S28D L102I,2.41 / 2.53 / 3.41,2.78,2 of 9 (4.12)
V39R H98W R99K,nd / nd / nd,nd,0 of 9
W56L R60C Y97F,nd / nd / nd,nd,3 of 9 (4.42)
Q27F E32C H98P,nd / 3.36 / nd,3.36,0 of 9
S25A S26Q V39W,4.62 / nd / nd,4.62,2 of 9 (3.83)
V29C R34Q P101H,nd / nd / nd,nd,1 of 9 (3.42)

The 5 strongest on average among those seen in every replicate, once more:

changes	replicates, log10 nM	mean log10 Kd (nM)	empty controls
V29L Y31T S33T	0.06 / 0.60 / 0.68	0.45	0 of 9
L100Q P101S	0.41 / 0.70 / 0.60	0.57	1 of 9 (4.24)
L30E R34F S103H	1.02 / 1.09 / 1.14	1.08	3 of 9 (5.62)
W56Q Q96H P101V	1.02 / 1.33 / 1.14	1.16	3 of 9 (3.63)
N35I Q95P P101K	1.43 / 1.41 / 1.31	1.39	3 of 9 (3.92)

From the AlphaSeq antibody data of Engelhart et al. 2022 (doi:10.1038/s41597-022-01779-4), copy in the FLAb collection.